Laboratory results as given in EP4840863A1, “FLUORINE-CONTAINING PARTHENOLIDE DERIVATIVE, PREPARATION METHOD THEREFOR AND USE THEREOF” (dated 2026).

Assays:
Conditions in all cases: 72 h, Table 1-1
PANC-1 Cells = assay: Anticancer activity test (CCK-8), PANC-1 cells
Description: (§1) Cells in logarithmic growth phase were digested, centrifuged, and counted; the cell suspension was adjusted to a concentration of 1500-3500 cells/well, and 95 µL was seeded into each well of a 96-well plate.
(§2) After continued overnight culture, drugs at different concentrations were added to the plate, with six replicate wells for each concentration. 10 µL of the drug was added to each well, followed by incubation for 72 h. Then, 10 µL of CCK-8 solution was added to each well (care should be taken to avoid generating bubbles in the wells, as they can affect the OD reading). After incubation in the incubator for 1-4 h, the OD value at 450 nm was measured using a microplate reader. The experiment to assess the effect of each drug on each cell line at different time points was repeated three times.
(§3) Data were processed using EXCEL software to calculate the inhibition rate at different concentrations, and SPSS was used to fit the IC50 value. EXCEL was used to calculate the mean and standard deviation of the three IC50 values. Inhibition rate % = {1 - (OD value of drug well - OD value of blank well) / (OD value of control well - OD value of blank well) } * 100%. Table 1-1 Activity of Compounds in Inhibiting Cancer Cells

H520 = assay: Anticancer activity test (CCK-8), H520 cells
Description: as §1, §2, §3

HT-29 = assay: Anticancer activity test (CCK-8), HT-29 cells
Description: as §1, §2, §3

Huh-7 = assay: Anticancer activity test (CCK-8), Huh-7 cells
Description: as §1, §2, §3

U-118 = assay: Anticancer activity test (CCK-8), U-118 cells
Description: as §1, §2, §3

Compound	IC50 (PANC-1 Cells)	IC50 (H520)	IC50 (HT-29)	IC50 (Huh-7)	IC50 (U-118)
C=C1C(=O)OC2C1CCC(CSC#N)=CCCC1(C)OC21 (stereo not shown)	4.04 µM	6.95 µM	4.87 µM	5.61 µM	3.29 µM
C=C1C(=O)OC2C1CCC(CSC(F)(F)F)=CCCC1(C)OC21 (stereo not shown)	2.23 µM	2.12 µM	2.93 µM	2.9 µM	3.15 µM
C=C1C(=O)O[C@@H]2[C@H]3O[C@]3(C)CC/C=C(\C)CC[C@@H]12	6.98 µM	3.79 µM	5.16 µM	5.58 µM	3.84 µM
CN(C)CC1C(=O)OC2C1CCC(CC(F)(F)F)=CCCC1(C)OC21 (stereo not shown) [Compound 2]	6.35 µM	3.28 µM	5 µM	3.93 µM	4.3 µM
CN(C)CC1C(=O)OC2C1CCC(CC(F)(F)F)=CCCC1(C)OC21 (stereo not shown) [Compound 3]	8.8 µM	4.49 µM	6 µM	5.46 µM	5.03 µM
